Two molecules from patent EP4684807A1, “LINKER AND USE THEREOF IN LIGAND DRUG CONJUGATE” (priority 2023, dated 2024) can be followed below.

This data set is described as follows: Plasma stability test, drug-to-antibody ratio by LC-MS. The class given is in vitro ADME. The following applies: human plasma, 37°C. On the procedure: Antibody-drug conjugates were captured by immobilized magnetic beads
The beads were eluted with 200 µL of PBS buffer, then treated with 80 µL of biotin-labeled antigen protein and another 100 µL of PBS buffer at room temperature for 120 minutes. […] The supernatant was then removed.

B1: ADC-1D-1 (conjugate)
heavy: QVQLQQPGTEVVKPGASVKLSCKASGFTFPLYWMHWVRQRPGRGLEWIGRIIPIFGHTKYNEKFKNKATLTADESSSTAYMELRSLTSDDSAVYYCARGGYYYYPREGFLDYWGQGTSVTVSSASTKGPSVFPLAPSSKSTSGGTAALGCLVKDYFPEPVTVSWNSGALTSGVHTFPAVLQSSGLYSLSSVVTVPSSSLGTQTYICNVNHKPSNTKVDKKV[not shown - human IgG1 Fc]
light: DIVMTQSPASLSVSPGERASISCRSSQSVDYSGDSYMNWYQQKPGQSPRLLIYAASDRESGVPDRFSGSGSGTDFTLKISRVEEEDAGTYYCQQSREDPFTFGQGTKVDIKRTVAAPSVFIFPPSDEQLKSGTASVVCLLNNFYPREAKVQWKVDNALQSGNSQESVTEQDSKDSTYSLSSTLTLSKADYEKHKVYACEVTHQGLSSPVTKSFNRGEC
Consider B1, for which the DAR value entry by setting is: (2h) “A (A: 3.5-4.5)”; (8h) “A (A: 3.5-4.5)”; (1d) “A (A: 3.5-4.5)”; (4d) “A (A: 3.5-4.5)”; (7d) “A (A: 3.5-4.5)”.

B2: ADC-2D-1 (conjugate)
heavy: QVQLQQPGTEVVKPGASVKLSCKASGFTFPLYWMHWVRQRPGRGLEWIGRIIPIFGHTKYNEKFKNKATLTADESSSTAYMELRSLTSDDSAVYYCARGGYYYYPREGFLDYWGQGTSVTVSSASTKGPSVFPLAPSSKSTSGGTAALGCLVKDYFPEPVTVSWNSGALTSGVHTFPAVLQSSGLYSLSSVVTVPSSSLGTQTYICNVNHKPSNTKVDKKV[not shown - human IgG1 Fc]
light: DIVMTQSPASLSVSPGERASISCRSSQSVDYSGDSYMNWYQQKPGQSPRLLIYAASDRESGVPDRFSGSGSGTDFTLKISRVEEEDAGTYYCQQSREDPFTFGQGTKVDIKRTVAAPSVFIFPPSDEQLKSGTASVVCLLNNFYPREAKVQWKVDNALQSGNSQESVTEQDSKDSTYSLSSTLTLSKADYEKHKVYACEVTHQGLSSPVTKSFNRGEC
As for B2, the DAR value entry is listed as “A (A: 3.5-4.5)” (2h); “B (B: 2.5-3.5)” (8h); “B (B: 2.5-3.5)” (1d); “C (C: < 2.5)” (4d); “C (C: < 2.5)” (7d).
